Test results: patent US20260284036A1 (priority 2023, published 2026)

Columns and labels:
[1] = test system: antinociceptive effects of fentanyl; assay: Antinociceptive effects of fentanyl in rats (warm water 50° C. tail withdrawal latency) after oral methocinnamox; settings: for antagonism of the antinociceptive effects of fentanyl (tail withdrawal latency): oral (gastric intubation) 100 mg/kg [base], fentanyl intraperitoneal up to 0.1 mg/kg, 50° C. water, male rats; for time after oral administration at which sensitivity to antinociceptive effects of fentanyl returned to control / duration of blockade of the antinociceptive effects of fentanyl: single oral dose 100 mg/kg (free base), rats; for duration of blockade of the antinociceptive effects of fentanyl: 100 mg/kg
[2] = test system: ventilatory depressant effects of fentanyl; assay: Ventilatory depressant effects of fentanyl in rhesus monkeys (head plethysmography, minute volume VE) after oral methocinnamox; settings: for antagonism of the ventilatory depressant effects of fentanyl (shift of fentanyl dose-response curve, minute volume VE): oral (nasogastric intubation) 0.1, 0.32, 1.0 mg/kg [HCl], fentanyl subcutaneous, four rhesus monkeys
[3] = Apparent bioavailability of MCAM in dogs, subcutaneous vs oral (plasma concentrations); settings: s.c. 10 mg/kg vs p.o. 30 mg/kg (3-fold increase in dose)
[4] = Apparent bioavailability of MCAM in rats, subcutaneous vs oral (plasma concentrations); settings: s.c. 30 mg/kg vs p.o. 100 mg/kg (3-fold increase in dose)
[5] = listed as MCAM hydrochloride (HCl), HCl

Molecule | antagonism of the antinociceptive effects of fentanyl (tail withdrawal latency) [1] | antagonism of the antinociceptive effects of fentanyl (tail withdrawal latency) ([1]; listed as MCAM maleate) | time after oral administration at which sensitivity to antinociceptive effects of fentanyl returned to control [1] [days] | duration of blockade of the antinociceptive effects of fentanyl [1] | duration of blockade of the antinociceptive effects of fentanyl ([1]; listed as MCAM maleate) | antagonism of the ventilatory depressant effects of fentanyl (shift of fentanyl dose-response curve, minute volume VE) [2] | antagonism of the ventilatory depressant effects of fentanyl (shift of fentanyl dose-response curve, minute volume VE) ([2]; listed as MCAM) | duration of effectiveness against ventilatory depressant effects of fentanyl after administration ([2]; single oral (nasogastric) dose 0.1-1.0 mg/kg, rhesus monkeys) | increase in exposure (area under the curve; AUC) from s.c. to p.o. [3] [fold] | increase in exposure (area under the curve; AUC) from s.c. to p.o. [4] [fold] | antagonism of the antinociceptive effects of fentanyl (tail withdrawal latency) ([1]; HCl) | antagonism of the antinociceptive effects of fentanyl (tail withdrawal latency) [1, 5] | duration of blockade of the antinociceptive effects of fentanyl ([1]; HCl) | duration of blockade of the antinociceptive effects of fentanyl [1, 5]
methocinnamox maleate | blocking completely the effects of fentanyl up to a dose of 0.1 mg/kg | absence of any increase in tail withdrawal latency up to a dose of 0.1 mg/kg fentanyl | 45 | up to 21 days | at least 21 days |  |  |  |  |  |  |  |  | 
Cc1ccc(/C=C/C(=O)N[C@@]23CCC(=O)[C@@H]4Oc5c(O)ccc6c5[C@@]42CCN(CC2CC2)[C@@H]3C6)cc1 |  |  |  |  |  | antagonized the ventilatory depressant effects of fentanyl in all four monkeys | attenuated the ventilatory depressant effects of fentanyl | up to 8 days | 3 | 3 |  |  |  | 
methocinnamox HCl |  |  | 45 |  |  |  |  |  |  |  | blocking completely the effects of fentanyl up to a dose of 0.1 mg/kg | absence of any increase in tail withdrawal latency up to a dose of 0.1 mg/kg fentanyl | up to 21 days | at least 21 days
